Values of other authors as cited in patent US20200268817A1, “CANNABINOID COMPOSITIONS, METHODS OF MANUFACTURE AND USE THEREOF” (priority 2016, published 2020).

Conditions: inhaled, pulmonary assimilation

Question: Which “time to maximum plasma concentration” value does the source give for `CCCCCc1cc(O)c2c(c1)OC(C)(C)[C@@H]1CCC(C)=C[C@@H]21` [THC, Tetrahydrocannabinol] here?
Answer: The value was “within minutes”.
